System: HUVEC
Test: Tube formation assay
Format: cell-based, human
Details: peptides pre-incubated 30 min, VEGF 10 ng/mL, Matrigel, 6 h

Substance: HSA: Recombinant human serum albumin
- tube formation of HUVEC cells induced by VEGF (total tube length): no inhibitory effect

From paper PMC5928873 (Theranostics, 2018)
